Experiments:
[1] = test system: Carnobacterium divergens; test: Ratio of Kcat to Km of Carnobacterium divergens BM4489 penicillinase Cad-1
[2] = test system: Carnobacterium divergens; test: Activity of Carnobacterium divergens BM4489 penicillinase Cad-1 assessed as initial rate of hydrolysis by spectrophotometer
[3] = test system: Carnobacterium divergens; test: Ratio of Kcat to Km of Carnobacterium divergens BM4489 penicillinase Cad-1 relative to benzyl-penicillin

CC(=O)OCC1=C(C(=O)O)N2C(=O)[C@@H](NC(=O)Cc3cccs3)[C@H]2SC1
kcat/Km [1]: 4000 M⁻¹ s⁻¹
Km [2]: 24 µM
kcat [2]: 0.1 s⁻¹
kcat/Km [3]: 0.06

Source: ChEMBL document CHEMBL1151476, “Genetic and biochemical characterization of CAD-1, a chromosomally encoded new class A penicillinase from Carnobacterium divergens” (Antimicrob Agents Chemother, 2008)
